The values below come from patent EP4834897A1, “COMPOUNDS WITH TWO AZAHETEROCYCLES SUBSTITUTED ISOINDOLINONE SKELETON AND USES THEREOF” (dated 2026).

By UniProt entry, the sequences of proteins in these tests, tags left out.
UniProt Q96SW2, whole entry: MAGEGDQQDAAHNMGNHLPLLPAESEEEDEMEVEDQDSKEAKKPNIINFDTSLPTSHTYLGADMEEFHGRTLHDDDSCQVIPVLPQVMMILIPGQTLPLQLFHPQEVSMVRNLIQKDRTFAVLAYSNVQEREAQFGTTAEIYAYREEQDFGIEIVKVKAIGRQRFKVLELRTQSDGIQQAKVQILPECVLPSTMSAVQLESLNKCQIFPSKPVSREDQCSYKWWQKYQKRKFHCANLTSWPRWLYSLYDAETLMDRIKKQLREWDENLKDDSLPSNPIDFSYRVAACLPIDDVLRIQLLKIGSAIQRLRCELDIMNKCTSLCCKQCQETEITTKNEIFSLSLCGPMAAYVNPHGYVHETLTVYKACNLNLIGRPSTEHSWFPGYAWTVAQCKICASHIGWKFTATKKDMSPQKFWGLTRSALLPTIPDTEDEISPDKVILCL
UniProt Q9UKT9, whole entry: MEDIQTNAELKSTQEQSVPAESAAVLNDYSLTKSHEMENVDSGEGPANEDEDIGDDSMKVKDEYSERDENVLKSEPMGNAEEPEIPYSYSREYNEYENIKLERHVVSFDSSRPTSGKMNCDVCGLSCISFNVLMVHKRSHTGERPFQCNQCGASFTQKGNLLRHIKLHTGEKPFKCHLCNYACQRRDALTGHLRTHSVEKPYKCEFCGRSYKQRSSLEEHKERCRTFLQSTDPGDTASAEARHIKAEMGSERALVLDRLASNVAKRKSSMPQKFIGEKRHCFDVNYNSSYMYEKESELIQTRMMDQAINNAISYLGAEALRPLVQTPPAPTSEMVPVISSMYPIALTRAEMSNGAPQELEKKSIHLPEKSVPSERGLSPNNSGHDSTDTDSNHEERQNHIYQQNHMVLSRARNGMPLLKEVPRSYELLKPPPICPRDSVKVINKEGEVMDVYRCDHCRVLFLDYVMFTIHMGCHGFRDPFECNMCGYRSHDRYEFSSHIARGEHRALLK
UniProt Q13422, whole entry: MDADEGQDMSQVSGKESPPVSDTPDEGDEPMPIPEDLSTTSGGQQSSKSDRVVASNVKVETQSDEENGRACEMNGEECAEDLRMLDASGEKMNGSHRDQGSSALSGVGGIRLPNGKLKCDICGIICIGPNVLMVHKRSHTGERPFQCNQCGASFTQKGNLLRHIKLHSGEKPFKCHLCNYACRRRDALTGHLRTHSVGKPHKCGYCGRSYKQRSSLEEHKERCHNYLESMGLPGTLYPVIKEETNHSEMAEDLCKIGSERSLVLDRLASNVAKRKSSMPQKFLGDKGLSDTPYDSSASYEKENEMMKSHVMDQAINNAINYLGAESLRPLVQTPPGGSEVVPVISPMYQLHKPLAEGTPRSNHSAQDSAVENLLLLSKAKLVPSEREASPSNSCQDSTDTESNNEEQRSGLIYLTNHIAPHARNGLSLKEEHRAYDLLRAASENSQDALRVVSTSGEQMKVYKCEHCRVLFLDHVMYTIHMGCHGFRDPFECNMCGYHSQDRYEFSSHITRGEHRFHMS
UniProt P15170, whole entry: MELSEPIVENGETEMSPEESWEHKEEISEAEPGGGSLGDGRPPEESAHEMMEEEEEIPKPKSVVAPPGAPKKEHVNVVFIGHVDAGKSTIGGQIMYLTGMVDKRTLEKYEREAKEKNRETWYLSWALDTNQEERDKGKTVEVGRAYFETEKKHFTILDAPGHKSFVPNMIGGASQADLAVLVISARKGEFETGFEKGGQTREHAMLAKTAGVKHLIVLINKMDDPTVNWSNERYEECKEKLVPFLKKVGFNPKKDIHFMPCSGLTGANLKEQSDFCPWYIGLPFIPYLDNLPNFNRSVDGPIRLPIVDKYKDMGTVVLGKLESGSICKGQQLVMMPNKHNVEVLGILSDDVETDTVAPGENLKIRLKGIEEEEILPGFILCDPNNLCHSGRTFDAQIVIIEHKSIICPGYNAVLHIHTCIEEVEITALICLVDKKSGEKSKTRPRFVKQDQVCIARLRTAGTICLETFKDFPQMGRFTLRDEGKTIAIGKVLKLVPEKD
UniProt P48729, whole entry: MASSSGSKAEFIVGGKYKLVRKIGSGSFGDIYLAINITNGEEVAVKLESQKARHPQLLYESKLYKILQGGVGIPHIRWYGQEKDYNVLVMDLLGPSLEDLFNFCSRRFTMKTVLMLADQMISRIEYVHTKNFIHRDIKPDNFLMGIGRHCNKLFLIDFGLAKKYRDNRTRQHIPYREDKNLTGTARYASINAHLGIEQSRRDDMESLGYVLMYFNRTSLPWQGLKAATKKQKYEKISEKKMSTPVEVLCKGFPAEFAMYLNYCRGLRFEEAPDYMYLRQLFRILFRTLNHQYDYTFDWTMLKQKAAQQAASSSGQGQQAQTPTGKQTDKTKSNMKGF
UniProt Q9UKS7, whole entry: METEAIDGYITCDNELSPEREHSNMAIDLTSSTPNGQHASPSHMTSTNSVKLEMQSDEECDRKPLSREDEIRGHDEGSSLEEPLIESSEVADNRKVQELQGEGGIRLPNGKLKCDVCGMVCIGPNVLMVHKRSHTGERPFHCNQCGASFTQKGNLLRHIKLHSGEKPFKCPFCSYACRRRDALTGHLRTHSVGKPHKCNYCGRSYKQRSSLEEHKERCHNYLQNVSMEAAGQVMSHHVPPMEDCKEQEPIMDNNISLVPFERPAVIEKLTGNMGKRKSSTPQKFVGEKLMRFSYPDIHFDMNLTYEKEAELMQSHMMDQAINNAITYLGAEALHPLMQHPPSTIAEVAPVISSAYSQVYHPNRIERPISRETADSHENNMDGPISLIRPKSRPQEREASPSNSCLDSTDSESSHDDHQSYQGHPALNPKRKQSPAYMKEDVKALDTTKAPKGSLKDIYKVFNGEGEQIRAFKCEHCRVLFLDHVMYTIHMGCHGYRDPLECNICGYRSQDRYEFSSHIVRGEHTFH
UniProt P30291, whole entry: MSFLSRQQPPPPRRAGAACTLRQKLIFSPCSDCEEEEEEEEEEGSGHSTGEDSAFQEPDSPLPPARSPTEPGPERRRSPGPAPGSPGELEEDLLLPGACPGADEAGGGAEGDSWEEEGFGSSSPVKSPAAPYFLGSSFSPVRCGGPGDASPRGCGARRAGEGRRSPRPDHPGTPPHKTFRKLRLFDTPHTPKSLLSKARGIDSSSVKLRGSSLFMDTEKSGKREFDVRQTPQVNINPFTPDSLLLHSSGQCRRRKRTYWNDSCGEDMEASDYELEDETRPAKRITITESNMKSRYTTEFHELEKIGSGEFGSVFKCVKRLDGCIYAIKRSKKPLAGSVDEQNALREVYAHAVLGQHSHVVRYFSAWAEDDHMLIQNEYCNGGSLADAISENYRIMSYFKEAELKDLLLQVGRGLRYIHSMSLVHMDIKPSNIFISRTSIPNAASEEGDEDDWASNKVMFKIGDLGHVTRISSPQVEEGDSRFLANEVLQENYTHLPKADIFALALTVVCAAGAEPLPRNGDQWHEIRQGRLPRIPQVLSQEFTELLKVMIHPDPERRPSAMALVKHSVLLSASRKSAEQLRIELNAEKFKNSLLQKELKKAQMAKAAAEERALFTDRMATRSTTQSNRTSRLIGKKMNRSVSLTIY
UniProt Q16531, whole entry partner: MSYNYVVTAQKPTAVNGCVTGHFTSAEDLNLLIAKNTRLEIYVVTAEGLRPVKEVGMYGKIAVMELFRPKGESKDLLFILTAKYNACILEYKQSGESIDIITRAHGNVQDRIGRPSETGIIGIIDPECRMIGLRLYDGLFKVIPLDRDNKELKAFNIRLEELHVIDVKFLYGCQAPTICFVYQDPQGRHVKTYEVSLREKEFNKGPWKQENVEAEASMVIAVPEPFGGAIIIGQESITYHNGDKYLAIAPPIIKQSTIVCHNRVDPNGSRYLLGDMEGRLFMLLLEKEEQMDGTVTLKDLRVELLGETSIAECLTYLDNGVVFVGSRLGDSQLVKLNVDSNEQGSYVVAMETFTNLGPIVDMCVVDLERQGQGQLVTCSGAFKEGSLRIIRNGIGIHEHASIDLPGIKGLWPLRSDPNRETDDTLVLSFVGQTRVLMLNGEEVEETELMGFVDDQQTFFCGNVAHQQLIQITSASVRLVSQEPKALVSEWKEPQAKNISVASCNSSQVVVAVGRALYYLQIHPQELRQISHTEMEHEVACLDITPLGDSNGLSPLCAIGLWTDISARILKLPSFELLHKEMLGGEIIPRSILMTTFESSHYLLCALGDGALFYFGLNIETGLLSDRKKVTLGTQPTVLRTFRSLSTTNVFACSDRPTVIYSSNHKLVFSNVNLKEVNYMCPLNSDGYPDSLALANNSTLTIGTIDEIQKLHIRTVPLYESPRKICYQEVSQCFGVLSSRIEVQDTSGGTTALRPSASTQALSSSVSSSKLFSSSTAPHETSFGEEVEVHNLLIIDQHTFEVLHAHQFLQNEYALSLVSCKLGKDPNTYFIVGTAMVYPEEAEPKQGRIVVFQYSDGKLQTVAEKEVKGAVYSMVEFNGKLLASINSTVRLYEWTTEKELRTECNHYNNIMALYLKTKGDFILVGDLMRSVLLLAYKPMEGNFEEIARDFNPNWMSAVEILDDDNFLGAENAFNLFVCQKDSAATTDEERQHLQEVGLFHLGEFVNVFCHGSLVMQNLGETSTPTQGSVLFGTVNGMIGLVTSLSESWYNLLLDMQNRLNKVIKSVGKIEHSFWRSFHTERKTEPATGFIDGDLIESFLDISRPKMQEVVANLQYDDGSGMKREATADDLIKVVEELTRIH

Assay [1] addresses CRBN (Homo sapiens, UniProt Q96SW2). As to the kind of experiment: CRBN binding affinity by HTRF (CEREBLON BINDING kit). To be noted: CRBN binding, HTRF; for Inhibition Rate at 0.5 µM (%): compound at 0.5 µM; for Inhibition Rate at 2 µM (%): compound at 2 µM. (Time-resolved FRET reads energy transfer from a long-lived donor to a nearby acceptor.)
Assay [2] relates to Human acute T lymphocytic leukemia cell (Molt4). As to the kind of experiment: Tumor cell proliferation inhibition (cell viability assay). To be noted: Molt4 cells, 96 hours.
Assay [3] deals with Human myeloid monocytic leukemia cell (MV-4-11). Described as above. To be noted: MV-4-11 cells, 96 hours.
The test system of assay [4] is Human mantle cell lymphoma cell line (JEKO-1). Described as above. To be noted: JEKO-1 cells, 96 hours.
Assay [5] has as its system Human multiple myeloma cell (MM.1S). Described as above. To be noted: MM.1S cells, 96 hours.
In assay [6] the test system is Human diffuse large B-cell lymphoma cell (TMD8). The assay is described as above. To be noted: TMD8 cells, 96 hours.
The test system of assay [7] is Human colon cancer cell (SW620). The assay is described as above. To be noted: SW620 cells, 96 hours.
Assay [8] concerns Human breast cancer cell (MCF-7). Described as above. To be noted: MCF-7 cells, 96 hours.
For assay [9], the target named is IKZF3 (Homo sapiens, UniProt Q96SW2+Q9UKT9). As to the kind of experiment: Western blot assay of substrate protein degradation in hPBMCs. To be noted: 24 hours treatment, compounds at 50 nM and 500 nM (concentration behind the class not stated). For orientation: Immunoblotting shows a protein as a band on a membrane.
For assay [10], the target named is IKZF1 (Homo sapiens, UniProt Q13422+Q96SW2). The assay is described as above. To be noted: 24 hours treatment, compounds at 50 nM and 500 nM (concentration behind the class not stated).
The target of assay [11] is GSPT1 (Homo sapiens, UniProt P15170+Q96SW2). The assay is described as above. To be noted: 24 hours treatment, compounds at 50 nM and 500 nM (concentration behind the class not stated).
The target in assay [12] is CK1α (Homo sapiens, UniProt P48729+Q96SW2). The assay is described as above. To be noted: 24 hours treatment, compounds at 50 nM and 500 nM (concentration behind the class not stated).
Assay [13] concerns the target IKZF2 (Homo sapiens, UniProt Q96SW2+Q9UKS7). The assay is described as above. To be noted: 24 hours treatment, compounds at 50 nM and 500 nM (concentration behind the class not stated).
Assay [14] addresses WEE1 (Homo sapiens, UniProt P30291+Q96SW2). The description is as above. To be noted: 24 hours treatment, compounds at 50 nM and 500 nM (concentration behind the class not stated).

Consider `O=C1CCC(N2Cc3cc(CN4CCC(N5CC=C(c6cccc(Cl)c6Cl)CC5)C(F)(F)C4)c(F)cc3C2=O)C(=O)N1` (centres unmarked), for which the “Inhibition Rate at 0.5 µM (%)” value in [1] is “a3 (30% < a3 ≤ 40%)”. In addition, the “Inhibition Rate at 2 µM (%)” value in [1] is on record as “a5 (53% < a5 ≤ 60%)”. The “Inhibition Rate at 10 nM (%)” value in assay [2] was 1c12 (100% < 1c12 ≤ 105%); in assay [3] it was 1a11 (100% ≤ 1a11 ≤ 105%); in assay [4], 1g8 (60% ≤ 1g8 < 70%); in [5], 1b10 (80% ≤ 1b10 ≤ 100%); in assay [6] it was 1f3 (10% ≤ 1f3 < 20%); in assay [7] it was 1d10 (80% ≤ 1d10 ≤ 100%). Further, the “Inhibition Rate at 10 nM (%)” value in assay [8] is 1e8 (50% ≤ 1e8 < 60%). Besides, the “Inhibition Rate at 500 nM (%)” value in assay [2] is recorded as 1c11 (80% ≤ 1c11 ≤ 100%); in assay [3], 1a10 (80% ≤ 1a10 < 100%); in assay [4], 1g9 (70% ≤ 1g9 < 80%); in assay [5], 1b10 (80% ≤ 1b10 ≤ 100%); in assay [6], 1f6 (40% ≤ 1f6 < 50%); in assay [7], 1d10 (80% ≤ 1d10 ≤ 100%). For the same molecule, in assay [8], the “Inhibition Rate at 500 nM (%)” value is 1e10 (70% ≤ 1e10 < 80%). In addition, the “substrate protein remaining % (IKZF3)” value in [9] was “A (0% ≤ substrate protein remaining % ≤ 80%)”. The “substrate protein remaining % (IKZF 1)” value in assay [10] is reported as “A (0% ≤ substrate protein remaining % ≤ 80%)”. In addition, the “substrate protein remaining % (GSPT1)” value in assay [11] is recorded as “A (0% ≤ substrate protein remaining % ≤ 80%)”. In addition, the “substrate protein remaining % (CK1a)” value in assay [12] is given as “A (0% ≤ substrate protein remaining % ≤ 80%)”. Moreover, the “substrate protein remaining % (IKZF2)” value in [13] is “A (0% ≤ substrate protein remaining % ≤ 80%)”. Besides, the “substrate protein remaining % (WEE1)” value in assay [14] is recorded as “A (0% ≤ substrate protein remaining % ≤ 80%)”.

Regarding `O=C1CCC(N2Cc3cc(CN4CCC(N5CCN(c6cccc(Cl)c6Cl)CC5)C(F)(F)C4)c(F)cc3C2=O)C(=O)N1` (centres unmarked), the “Inhibition Rate at 10 nM (%)” value was 1c11 (80% ≤ 1c11 ≤ 100%) in [2]; 1a10 (80% ≤ 1a10 < 100%) in assay [3]; 1g8 (60% ≤ 1g8 < 70%) in assay [4]; 1b10 (80% ≤ 1b10 ≤ 100%) in assay [5]; 1f4 (20% ≤ 1f4 < 30%) in [6]; 1d9 (70% ≤ 1d9 < 80%) in [7]. Further, in assay [8], the “Inhibition Rate at 10 nM (%)” value is 1e9 (60% ≤ 1e9 < 70%). Besides, the “Inhibition Rate at 500 nM (%)” value is reported as 1c11 (80% ≤ 1c11 ≤ 100%) in assay [2]; 1a10 (80% ≤ 1a10 < 100%) in assay [3]; 1g10 (80% ≤ 1g10 ≤ 100%) in [4]; 1b10 (80% ≤ 1b10 ≤ 100%) in [5]; 1f10 (80% ≤ 1f10 ≤ 100%) in [6]; 1d10 (80% ≤ 1d10 ≤ 100%) in assay [7]. Further, in [8], the “Inhibition Rate at 500 nM (%)” value is reported as 1e11 (80% ≤ 1e11 ≤ 100%). Besides, the “substrate protein remaining % (IKZF3)” value in assay [9] is recorded as “A (0% ≤ substrate protein remaining % ≤ 80%)”. For the same molecule, in assay [10], the “substrate protein remaining % (IKZF 1)” value is reported as “A (0% ≤ substrate protein remaining % ≤ 80%)”. Further, the “substrate protein remaining % (GSPT1)” value in assay [11] is listed as “A (0% ≤ substrate protein remaining % ≤ 80%)”. In assay [12], the “substrate protein remaining % (CK1a)” value is given as “A (0% ≤ substrate protein remaining % ≤ 80%)”. Besides, the “substrate protein remaining % (IKZF2)” value in assay [13] is given as “A (0% ≤ substrate protein remaining % ≤ 80%)”. Besides, the “substrate protein remaining % (WEE1)” value in assay [14] is “A (0% ≤ substrate protein remaining % ≤ 80%)”.

As to `O=C1CCC(N2Cc3c(C(=O)N4CCC(N5CCN(c6cccc(Cl)c6Cl)CC5)CC4)cccc3C2=O)C(=O)N1` (centres unmarked), the “Inhibition Rate at 0.5 µM (%)” value in [1] is recorded as “a3 (30% < a3 ≤ 40%)”. For the same molecule, in assay [1], the “Inhibition Rate at 2 µM (%)” value was “a6 (60% < a6 ≤ 70%)”. The “Inhibition Rate at 10 nM (%)” value is listed as 1a5 (30% ≤ 1a5 ≤ 40%) in assay [3], 1b4 (20% ≤ 1b4 < 32%) in assay [5], 1f7 (50% ≤ 1f7 < 60%) in assay [6] and 1e5 (20% ≤ 1e5 < 30%) in assay [8]. The “Inhibition Rate at 500 nM (%)” value in assay [3] is 1a8 (60% ≤ 1a8 < 70%); in [5] it was 1b7 (50% ≤ 1b7 < 60%); in assay [6], 1f7 (50% ≤ 1f7 < 60%); in assay [8] it was 1e7 (40% ≤ 1e7 < 50%). Besides, the “substrate protein remaining % (IKZF3)” value in [9] is listed as “A (0% ≤ substrate protein remaining % ≤ 80%)”. Moreover, the “substrate protein remaining % (IKZF 1)” value in assay [10] is given as “B (80%< substrate protein remaining %≤ 100%)”. Besides, in assay [11], the “substrate protein remaining % (GSPT1)” value was “A (0% ≤ substrate protein remaining % ≤ 80%)”. Further, in [12], the “substrate protein remaining % (CK1a)” value is recorded as “A (0% ≤ substrate protein remaining % ≤ 80%)”. Further, in [13], the “substrate protein remaining % (IKZF2)” value is recorded as “A (0% ≤ substrate protein remaining % ≤ 80%)”. Moreover, the “substrate protein remaining % (WEE1)” value in assay [14] is on record as “B (80%< substrate protein remaining %≤ 100%)”.

In the case of `O=C1CCC(N2Cc3cc(CN4CCC(N5CCC(c6noc7cc(F)ccc67)CC5)C(F)(F)C4)c(F)cc3C2=O)C(=O)N1` (centres unmarked), the “Inhibition Rate at 10 nM (%)” value in assay [2] is given as 1c11 (80% ≤ 1c11 ≤ 100%); in assay [3] it was 1a10 (80% ≤ 1a10 < 100%); in assay [4], 1g8 (60% ≤ 1g8 < 70%); in assay [5], 1b10 (80% ≤ 1b10 ≤ 100%); in assay [6], 1f4 (20% ≤ 1f4 < 30%); in assay [7], 1d10 (80% ≤ 1d10 ≤ 100%). In addition, the “Inhibition Rate at 10 nM (%)” value in [8] is 1e8 (50% ≤ 1e8 < 60%). Besides, the “Inhibition Rate at 500 nM (%)” value is 1c11 (80% ≤ 1c11 ≤ 100%) in assay [2]; 1a10 (80% ≤ 1a10 < 100%) in [3]; 1g9 (70% ≤ 1g9 < 80%) in assay [4]; 1b10 (80% ≤ 1b10 ≤ 100%) in [5]; 1f8 (60% ≤ 1f8 < 70%) in assay [6]; 1d10 (80% ≤ 1d10 ≤ 100%) in assay [7]. Further, the “Inhibition Rate at 500 nM (%)” value in assay [8] was 1e9 (60% ≤ 1e9 < 70%). Also, the “substrate protein remaining % (IKZF3)” value in [9] is reported as “A (0% ≤ substrate protein remaining % ≤ 80%)”. Besides, the “substrate protein remaining % (IKZF 1)” value in [10] is listed as “A (0% ≤ substrate protein remaining % ≤ 80%)”. Also, in [11], the “substrate protein remaining % (GSPT1)” value is listed as “A (0% ≤ substrate protein remaining % ≤ 80%)”. In addition, in assay [12], the “substrate protein remaining % (CK1a)” value is given as “A (0% ≤ substrate protein remaining % ≤ 80%)”. The “substrate protein remaining % (IKZF2)” value in assay [13] is “A (0% ≤ substrate protein remaining % ≤ 80%)”. The “substrate protein remaining % (WEE1)” value in assay [14] is recorded as “A (0% ≤ substrate protein remaining % ≤ 80%)”.

Turning to `Nc1cccc2c1C(=O)N(C1CCC(=O)NC1=O)C2=O` (centres unmarked), the “Inhibition Rate at 10 nM (%)” value in assay [2] is reported as 1c1 (-7% < 1c1 < 0); in assay [3], 1a3 (10% ≤ 1a3 < 20%); in [4] it was 1g2 (5% ≤ 1g2 < 10%); in assay [6] it was 1f2 (5% ≤ 1f2 < 10%); in [7], 1d1 (0 < 1d1 < 5%); in assay [8], 1e1 (-10% < 1e1 < 0). Moreover, the “Inhibition Rate at 500 nM (%)” value in assay [2] is reported as 1c1 (-7% < 1c1 < 0); in assay [3] it was 1a5 (30% ≤ 1a5 ≤ 40%); in assay [4], 1g4 (20% ≤ 1g4 < 30%); in assay [6] it was 1f4 (20% ≤ 1f4 < 30%); in assay [7], 1d1 (0 < 1d1 < 5%); in assay [8], 1e1 (-10% < 1e1 < 0).

As to `O=C1CCC(N2Cc3c(C(=O)N4CCC(N5CCN(c6cccc(Cl)c6Cl)CC5)C(F)(F)C4)cccc3C2=O)C(=O)N1` (centres unmarked), in assay [1], the “Inhibition Rate at 0.5 µM (%)” value is given as “a2 (20% < a2 ≤ 30%)” and the “Inhibition Rate at 2 µM (%)” value is listed as “a5 (53% < a5 ≤ 60%)”. Also, in [4], the “Inhibition Rate at 10 nM (%)” value is 1g5 (30% ≤ 1g5 < 40%) and the “Inhibition Rate at 500 nM (%)” value is 1g6 (40% ≤ 1g6 < 50%). Also, in [5], the “Inhibition Rate at 10 nM (%)” value is 1b3 (10% ≤ 1b3 < 20%) and the “Inhibition Rate at 500 nM (%)” value is listed as 1b9 (70% ≤ 1b9 < 80%). In addition, in assay [6], the “Inhibition Rate at 10 nM (%)” value is 1f4 (20% ≤ 1f4 < 30%) and the “Inhibition Rate at 500 nM (%)” value is reported as 1f8 (60% ≤ 1f8 < 70%). Besides, the “substrate protein remaining % (IKZF3)” value in [9] was “A (0% ≤ substrate protein remaining % ≤ 80%)”. The “substrate protein remaining % (IKZF 1)” value in assay [10] is given as “A (0% ≤ substrate protein remaining % ≤ 80%)”. Also, the “substrate protein remaining % (GSPT1)” value in assay [11] is recorded as “A (0% ≤ substrate protein remaining % ≤ 80%)”. In addition, in assay [12], the “substrate protein remaining % (CK1a)” value is listed as “A (0% ≤ substrate protein remaining % ≤ 80%)”. The “substrate protein remaining % (IKZF2)” value in [13] is “A (0% ≤ substrate protein remaining % ≤ 80%)”. The “substrate protein remaining % (WEE1)” value in assay [14] was “B (80%< substrate protein remaining %≤ 100%)”.
